The structures appear in SMILES notation.

Amino acid sequences for entries named in this document (tags omitted).
UniProt P08173, whole entry: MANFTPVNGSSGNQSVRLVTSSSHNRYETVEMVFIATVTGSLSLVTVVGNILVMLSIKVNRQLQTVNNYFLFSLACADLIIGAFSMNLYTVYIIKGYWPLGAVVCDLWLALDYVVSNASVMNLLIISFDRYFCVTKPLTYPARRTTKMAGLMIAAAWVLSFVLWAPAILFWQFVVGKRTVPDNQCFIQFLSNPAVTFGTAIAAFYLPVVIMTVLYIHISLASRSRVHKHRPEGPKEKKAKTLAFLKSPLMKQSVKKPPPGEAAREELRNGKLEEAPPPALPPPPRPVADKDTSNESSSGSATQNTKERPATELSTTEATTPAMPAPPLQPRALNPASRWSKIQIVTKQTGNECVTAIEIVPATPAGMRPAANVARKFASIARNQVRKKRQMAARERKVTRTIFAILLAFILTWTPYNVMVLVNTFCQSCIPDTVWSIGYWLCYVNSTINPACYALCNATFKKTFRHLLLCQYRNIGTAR

The source of these data is patent US11319298B2 (Merck Sharp & Dohme Corp., priority 2016, dated 2022).

This assay concerns the target human M4 muscarinic acetylcholine receptor (Homo sapiens, UniProt P08173). Kind of assay: human FLIPR-based M4 PAM assay, CHO-K1 cells stably transfected with human M4 receptor and chimeric G-protein Gαqi5. The settings on record: read-out: M4 PAM IP; inflection point (IP) of dose response curve; acetylcholine added at 20% of maximum response; CHO-K1 human M4/Gαqi5, FLIPR Tetra. As to the method: In a typical experiment the M4 muscarinic acetylcholine receptor modulating activity of the compounds of the present invention was determined in accordance with the following experimental method. CHO-K1 cells stably transfected with human M4 receptor and chimeric G-protein Gαqi5 (Coward P, et al., Analytical Biochemistry, 270:242-248 (1999)) are thawed from liquid N2 storage, resuspended in growth medium, plated in black, clear bottom 384 well plates, and incubated 16-20 hours at 37° C., 5% CO2. On the day of assay, growth medium is removed, the cells are washed 2 times with wash buffer, and cells are incubated in dye loading buffer at 37° C., 5% CO2 for ˜1 hour. Following dye loading the cell plates are placed in a FLIPR Tetra instrument and while monitoring dye fluorescence (excitation […]), 10 uL of test substance at increasing concentrations is added, and fluorescence values are recorded for 4 min. Next, 10 uL of acetylcholine is added (final concentration calculated so as to achieve 20% of the maximum acetycholine response), and the fluorescence reading is continued for 3.5 min. In some cases, a third addition of acetylcholine (final concentration calculated to achieve 70% of the maximal acetylcholine response) is performed. […]

As to `COc1ccc(OC2CCN(c3ncc(C(=O)NCc4ccncc4)cc3C)CC2)cn1`, the EC50 came out at 208 nM.
